## Ab-91 heavy chain CDR variants: yeast mating affinities

Binding partner: SARS-CoV-2 spike HR2 peptide, sequence PDVDLGDISGINAS.

Ab-91 is the parent antibody, in scFv form: VL, then a (GGGGS)3 linker, then VH. The light chain is unchanged in all variants.
VL: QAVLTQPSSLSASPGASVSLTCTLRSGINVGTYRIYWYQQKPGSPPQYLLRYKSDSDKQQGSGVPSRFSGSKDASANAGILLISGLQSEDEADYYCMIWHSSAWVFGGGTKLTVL
VH: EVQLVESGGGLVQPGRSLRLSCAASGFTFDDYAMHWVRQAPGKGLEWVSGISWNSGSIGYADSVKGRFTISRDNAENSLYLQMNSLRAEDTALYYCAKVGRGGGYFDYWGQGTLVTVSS

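The starting antibody came from a phage panning campaign against this peptide. The library (AAYL51) carries one to three amino acid substitutions per variant, with no insertions or deletions. AlphaSeq pools MATa yeast showing the antibodies with MATalpha yeast showing the peptide. Mating (16 h, 30 °C) was followed by selection of diploids and sequencing of their barcodes. The ratio of observed to expected reads was calibrated, replicate by replicate, on BCL2-family standards whose Kd was known from biolayer interferometry. Each pool was mated in three replicate cultures.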

The whole VH of each variant is written out. The read-out is the apparent dissociation constant on a log10 scale (nM): the lower, the stronger. The mean shown is taken over the replicates in which the pair was detected. "n.d." means that the variant was in the library but no mating with the target was seen in that replicate; the authors take this as a sign of poor binding, and no number exists. Three control strains display no target. For library AAYL51, 21% of the pairings with them gave a signal, with a median of 4.54 and one signal in twenty below 3.26, so weak values seen in few replicates may be background. Also given: how often the same scFv was detected with the empty control strains, with their mean in brackets.

VH | log10 Kd (nM) by replicate | mean, log10 nM | empty controls
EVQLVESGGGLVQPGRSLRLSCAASGFTFDDSAMHWVRQAPGKGLEWVSGISWNSGSIGYADSVKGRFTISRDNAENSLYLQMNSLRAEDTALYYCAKVGRGGGYFSYWGQGTLVTVSS | n.d. 5.17 n.d. | 5.17 | 4 of 9 (5.23)
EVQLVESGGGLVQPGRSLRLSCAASGFTFQDYAMHWVRQAPGKGLEWVSGISWRSGSIGYADSVSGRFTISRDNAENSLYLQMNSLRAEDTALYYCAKVGRGGGYFDYWGQGTLVTVSS | 3.83 3.92 n.d. | 3.87 | 0 of 9
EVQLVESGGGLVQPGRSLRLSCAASGFTFRDYAMHWVRQAPGKGLEWVSGISWNSGSIGHADSVKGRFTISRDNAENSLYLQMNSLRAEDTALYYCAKVGRWGGYFDYWGQGTLVTVSS | 1.14 1.34 0.91 | 1.13 | 4 of 9 (3.42)
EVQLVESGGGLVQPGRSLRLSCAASGFTVDDYAMTWVRQAPGKGLEWVSGISWNSGSIGYADSVKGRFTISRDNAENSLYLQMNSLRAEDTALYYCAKVGLGGGYFDYWGQGTLVTVSS | n.d. n.d. n.d. | n.d. | 0 of 9
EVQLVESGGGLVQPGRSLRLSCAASGFTFDDYAMHWVRQAPGKGLEWVSGISWNSGFIGYHDSVKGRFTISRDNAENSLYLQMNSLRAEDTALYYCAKVGRGGGYFDYWGQGTLVTVSS | 2.52 2.73 2.71 | 2.65 | 4 of 9 (4.83)
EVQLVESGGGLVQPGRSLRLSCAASGFTFDDYAMHWVRQAPGKGLEWVSGISWNSGSIGYLDSVKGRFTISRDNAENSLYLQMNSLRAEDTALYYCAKVGRSGIYFDYWGQGTLVTVSS | n.d. n.d. n.d. | n.d. | 2 of 9 (2.34)
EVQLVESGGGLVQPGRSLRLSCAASGFTFDNYAMHWVRQAPGKGLEWVSGISINSGSIGYADSVKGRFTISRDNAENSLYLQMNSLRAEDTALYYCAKVGRGGGIFDYWGQGTLVTVSS | n.d. n.d. n.d. | n.d. | 2 of 9 (4.00)
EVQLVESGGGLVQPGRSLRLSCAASGFTFDDYAMHWVRQAPGKGLEWVSGISWNSGSIGYADSVKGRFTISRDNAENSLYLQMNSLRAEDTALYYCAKTYRGGGYFDGWGQGTLVTVSS | n.d. 4.17 n.d. | 4.17 | 0 of 9
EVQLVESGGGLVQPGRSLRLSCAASGFTFDDYAMHWVRQAPGKGLEWVSGISWNSYSIGYADSVKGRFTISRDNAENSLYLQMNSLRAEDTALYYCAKVGRWGQYFDYWGQGTLVTVSS | n.d. 4.19 n.d. | 4.19 | 1 of 9 (4.43)
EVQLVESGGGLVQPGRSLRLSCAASGFTFDDYAMHWVRQAPGKGLEWVSAISWNSGCIGYADSMKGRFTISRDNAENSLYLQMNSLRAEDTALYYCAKVGRGGGYFDYWGQGTLVTVSS | 4.24 n.d. 3.64 | 3.94 | 6 of 9 (4.53)
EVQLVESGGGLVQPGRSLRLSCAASGSAFDDYAMHWVRQAPGKGLEWVSGISWNSLSIGYADSVKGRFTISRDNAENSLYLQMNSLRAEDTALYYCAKVGRGGGYFDYWGQGTLVTVSS | 5.16 4.21 4.72 | 4.70 | 3 of 9 (4.12)
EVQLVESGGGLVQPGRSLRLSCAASGFTRDDYAMHWVRQAPGKGLEWVSGISWMSGEIGYADSVKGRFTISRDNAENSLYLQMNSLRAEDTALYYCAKVGRGGGYFDYWGQGTLVTVSS | n.d. n.d. n.d. | n.d. | 0 of 9
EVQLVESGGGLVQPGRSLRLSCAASGFTFDDYAMHWVRQAPGKGLEWVSGISWNSGSIPYADSVKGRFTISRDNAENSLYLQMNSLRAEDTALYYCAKVGEGGQYFDYWGQGTLVTVSS | n.d. 5.67 n.d. | 5.67 | 1 of 9 (3.88)
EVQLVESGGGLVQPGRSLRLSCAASGEMFDDYAMHWVRQAPGKGLEWVSGISWNSGSIGYADSVKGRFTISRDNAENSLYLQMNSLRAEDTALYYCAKVGREGGYFDYWGQGTLVTVSS | 4.72 4.47 4.89 | 4.70 | 6 of 9 (4.60)
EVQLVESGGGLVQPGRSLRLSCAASGFTFDDYAMHWVRQAPGKGLEWVSGISWNSGSIGWADDVKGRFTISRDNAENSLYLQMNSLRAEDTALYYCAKVTRGGGYFDYWGQGTLVTVSS | 4.26 4.73 5.21 | 4.73 | 6 of 9 (4.71)
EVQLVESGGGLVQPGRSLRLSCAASGFTFYDYADHWVRQAPGKGLEWVSGISWNWGSIGYADSVKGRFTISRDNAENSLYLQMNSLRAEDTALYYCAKVGRGGGYFDYWGQGTLVTVSS | 4.26 n.d. n.d. | 4.26 | 0 of 9
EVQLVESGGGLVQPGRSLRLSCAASGFTFDDYAMHWVRQAPGKGLEWVSGDSWNSGSIAYADSVKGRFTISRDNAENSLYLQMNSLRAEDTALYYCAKVGRGGGYFDYWGQGTLVTVSS | 5.57 n.d. n.d. | 5.57 | 4 of 9 (4.63)
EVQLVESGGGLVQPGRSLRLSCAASGFTFDDYAMHWVRQAPGKGLEWVSGISWNSGSIGYIDSVKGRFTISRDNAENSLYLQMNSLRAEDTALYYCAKVGRGGGNFDPWGQGTLVTVSS | 3.67 n.d. 2.83 | 3.25 | 0 of 9
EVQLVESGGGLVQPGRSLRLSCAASGFTFDDYAMNWVRQAPGKGLEWVSGISWNSGSIGYADSVKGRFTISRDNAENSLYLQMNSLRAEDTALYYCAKVGRGGGWDDYWGQGTLVTVSS | 4.75 6.11 n.d. | 5.43 | 3 of 9 (4.68)

2 of these entries, quoted again:

VH,log10 Kd (nM) by replicate,"mean, log10 nM",empty controls
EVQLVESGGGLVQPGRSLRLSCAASGFTFDDYAMHWVRQAPGKGLEWVSGDSWNSGSIAYADSVKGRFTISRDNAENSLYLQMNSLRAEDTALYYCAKVGRGGGYFDYWGQGTLVTVSS,5.57 n.d. n.d.,5.57,4 of 9 (4.63)
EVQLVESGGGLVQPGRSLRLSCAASGFTFDDYAMHWVRQAPGKGLEWVSGISWNSGFIGYHDSVKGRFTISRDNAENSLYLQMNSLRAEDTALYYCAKVGRGGGYFDYWGQGTLVTVSS,2.52 2.73 2.71,2.65,4 of 9 (4.83)

Values reported by Engelhart et al. 2022, doi:10.1038/s41597-022-01779-4 (FLAb copy).